Reference: publication PMC4837003

Experiments:
[1] = biological target: HLA-A*0201 heavy chain with β2-microglobulin; experiment: circular dichroism
[2] = biological target: HLA-A*0201 heavy chain with β2-microglobulin

NS3_(1406(3S,4G,7L)-1415) peptide
apparent Tm by CD [1]: 61 °C | apparent Tm by DSF [2]: 61.1 °C
